# Test results published in patent publication US20090239898A1, “FURTHER THERAPEUTIC USE OF ZOLPIDEM” (SCIENCOM LTD., priority 2003, published 2009).
# Key:
# Type in all cases: in vivo, human
# [1] = system: patient who had suffered a stroke; assay: 99mTc HMPAO Brain SPECT before and after zolpidem in a stroke patient (Example 1); conditions: 1 hour after 10 mg zolpidem vs baseline
# Experimental: A patient was prescribed 10 mg zolpidem for treatment of their insomnia. They had suffered a stroke several years before and presented with left-sided paraplegia since the onset of their stroke. Their cognition was still normal but they had some aphasia and decreased proprioseption that was evident from their inability to use scissors with their right hand. The clinical and neurological features of the patient were unremarkable apart from the above. The patient was investigated by ^99mTc HMPAO Brain Spect before and after zolpidem application.
# Two brain SPECT studies were completed on different days. The first study was completed in the normal baseline state and the second study was performed 1 hour after application of 10 mg zolpidem on the following day. The imaging was started 30 minutes after intravenous injection of 900 MBq ^99mTc HMPAO, using a dual head SOPHY DST XLi gamma camera. Acquisition parameters were 64 angular views over 3600 at 45 seconds per view. Ultra high resolution fanbeam collimation without zoom was used and a 20% symmetrical window over 140 KeV. The images were reconstructed using a Metz prefilter. Transaxial, sagital and coronal slices were constructed without attenuation or scatter correction. The images before and after application of zolpidem were assessed in comparative transaxial slices and in different segments of the brain.
# [2] = system: patients with Spinocerebellar Ataxia Type 2; assay: 99mTc HMPAO Brain SPECT in Spinocerebellar Ataxia Type 2 patients (Example 2); conditions: patient P2, after zolpidem
# [3] = system: patient after subarachnoid haemorrhage; assay: Brain SPECT before and after zolpidem after subarachnoid haemorrhage (Example 4); conditions: 1 hour after 10 mg zolpidem
structure (smiles),measurement,setting,value
Cc1ccc(-c2nc3ccc(C)cn3c2CC(=O)N(C)C)cc1 [zolpidem],area affected by the stroke (no tracer uptake),[1],did not change
same,cerebellar 99Tc HMPAO uptake,[1],normalised
same,crossed cerebellar diaschisis,[1],reversed
same,decreased tracer uptake in the left thalamus and cerebellum,[2],normalized
same,decreased tracer uptake in the left thalamus and medial frontal regions bilaterally,[3],improved
